Data from ChEMBL document CHEMBL1129631, “Synthesis and evaluation of aryl-substituted N-(arylethyl)-N-methyl-2-(1-pyrrolidinyl)ethylamines and corresponding arylacetamides for sigma receptor affinity” (J Med Chem, 1996).

Biological target: Sigma non-opioid intracellular receptor 1 (Cavia porcellus) (UniProt Q60492)
Assay: Relative affinity for sigma-1 compared to sigma-2 type receptors

**Q.** With `COc1ccccc1CC(=O)N(C)CCN1CCCC1` as the molecule, how does the Ratio read?
**A.** The Ratio was 1.7.
